Measurements: article PMC9495587, “Neuroprotective Effects of the Lithium Salt of a Novel JNK Inhibitor in an Animal Model of Cerebral Ischemia–Reperfusion” (Biomedicines, 2022)

Chains of the proteins cited; added tags and fusions are not shown. Lines headed by an entry give the natural chain unless they say otherwise; changes in a name come on top.
UniProt P53779: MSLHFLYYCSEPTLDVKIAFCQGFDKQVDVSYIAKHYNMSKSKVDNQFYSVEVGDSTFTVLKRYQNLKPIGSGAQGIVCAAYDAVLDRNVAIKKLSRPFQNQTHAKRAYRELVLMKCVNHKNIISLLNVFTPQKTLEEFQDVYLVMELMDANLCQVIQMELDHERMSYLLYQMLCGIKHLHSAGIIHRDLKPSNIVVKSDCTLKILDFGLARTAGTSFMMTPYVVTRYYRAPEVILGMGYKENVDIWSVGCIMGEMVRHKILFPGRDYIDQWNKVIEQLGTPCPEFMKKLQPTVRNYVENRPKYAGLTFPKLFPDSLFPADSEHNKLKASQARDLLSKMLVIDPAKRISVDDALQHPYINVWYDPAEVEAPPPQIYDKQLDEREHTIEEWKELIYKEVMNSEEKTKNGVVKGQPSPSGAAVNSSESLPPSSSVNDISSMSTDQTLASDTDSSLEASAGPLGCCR
UniProt P45984: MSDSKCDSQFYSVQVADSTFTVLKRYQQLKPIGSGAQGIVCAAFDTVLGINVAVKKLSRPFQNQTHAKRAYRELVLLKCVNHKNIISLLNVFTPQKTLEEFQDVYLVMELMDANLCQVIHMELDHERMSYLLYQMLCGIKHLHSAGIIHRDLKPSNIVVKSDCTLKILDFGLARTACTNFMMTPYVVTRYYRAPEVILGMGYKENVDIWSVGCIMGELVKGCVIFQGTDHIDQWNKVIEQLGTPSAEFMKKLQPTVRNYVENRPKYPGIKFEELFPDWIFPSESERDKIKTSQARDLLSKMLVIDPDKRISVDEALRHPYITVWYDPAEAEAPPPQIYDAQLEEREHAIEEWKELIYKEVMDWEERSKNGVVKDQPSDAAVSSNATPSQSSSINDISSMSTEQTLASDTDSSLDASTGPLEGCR
UniProt P45983: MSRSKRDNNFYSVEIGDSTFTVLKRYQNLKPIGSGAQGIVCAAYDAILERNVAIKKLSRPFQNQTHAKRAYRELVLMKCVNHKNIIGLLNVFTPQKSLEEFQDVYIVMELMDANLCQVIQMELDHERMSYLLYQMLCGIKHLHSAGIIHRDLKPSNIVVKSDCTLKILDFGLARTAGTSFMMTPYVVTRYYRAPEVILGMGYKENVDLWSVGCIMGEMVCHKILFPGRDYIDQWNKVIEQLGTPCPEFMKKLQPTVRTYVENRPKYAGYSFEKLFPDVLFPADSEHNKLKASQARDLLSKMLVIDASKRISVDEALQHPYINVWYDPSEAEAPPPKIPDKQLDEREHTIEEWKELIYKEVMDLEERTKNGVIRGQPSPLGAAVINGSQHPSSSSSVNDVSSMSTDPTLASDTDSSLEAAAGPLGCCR

Legend:
Experiment in all cases: KINOMEscan competition binding assay (Kd, 12-point dilution series)
JNK3 = biological target: T1, JNK3 (Homo sapiens, UniProt P53779)
T1 construct: gene MAPK10

JNK2 = biological target: T2, JNK2 (Homo sapiens, UniProt P45984)
T2 construct: gene MAPK9

JNK1 = biological target: T3, JNK1 (Homo sapiens, UniProt P45983)
T3 construct: gene MAPK8

Kd (JNK3): 55 ± 10 nM
Kd (JNK2): 150 ± 40 nM
Kd (JNK1): 140 ± 10 nM
Compound: ON=C1c2ccccc2-c2nc3ccccc3nc21 [IQ-1L, lithium salt of oxime 11H-indeno[1,2-b]quinoxaline-11-one]

Counter-ions that a name gives are not always drawn.
